Experimental data from BindingDB's records for doi:10.7270/Q2J96B77 (D3R/Abbott, 2020).

By UniProt entry, the sequences of proteins in these tests, tags left out.
UniProt P25774, whole entry: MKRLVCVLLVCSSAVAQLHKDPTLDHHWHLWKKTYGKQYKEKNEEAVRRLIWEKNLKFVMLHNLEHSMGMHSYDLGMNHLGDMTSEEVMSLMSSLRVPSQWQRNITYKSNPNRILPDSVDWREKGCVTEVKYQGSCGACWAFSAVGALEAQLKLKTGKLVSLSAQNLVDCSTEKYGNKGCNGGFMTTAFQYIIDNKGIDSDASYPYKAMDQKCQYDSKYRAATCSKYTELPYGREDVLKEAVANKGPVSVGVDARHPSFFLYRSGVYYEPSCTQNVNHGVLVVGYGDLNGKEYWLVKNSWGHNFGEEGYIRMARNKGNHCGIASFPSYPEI

Biological target: Cathepsin S (Homo sapiens, UniProt P25774)
Assay: D3R2020

Row | IC50 [nM] | SMILES
1 | 200 | CS(=O)(=O)N1CCc2c(c(-c3ccc(C(F)(F)F)cc3)nn2C[C@H](O)CN2CCC(c3c[nH]c4cc[n+]([O-])cc34)CC2)C1 [CatS_1]
2 | 200 | CS(=O)(=O)N1CCc2c(c(-c3ccc(C(F)(F)F)cc3)nn2C[C@@H](O)CN2CCC(c3c[nH]c4cc[n+]([O-])cc34)CC2)C1 [CatS_2]
